AlphaSeq binding of Ab-14 light chain variants to a spike HR2 peptide

From the AlphaSeq antibody data of Li et al. 2023 (doi:10.1038/s41467-023-39022-2), copy in the FLAb collection.

All variants were tested on one target, the spike HR2 peptide PDVDLGDISGINAS (SARS-CoV-2).

Each scFv is VH, the linker GGGGSGGGGSGGGGS, VL, as in the parent Ab-14, and differs from it in the CDRs of the light chain only.
VH: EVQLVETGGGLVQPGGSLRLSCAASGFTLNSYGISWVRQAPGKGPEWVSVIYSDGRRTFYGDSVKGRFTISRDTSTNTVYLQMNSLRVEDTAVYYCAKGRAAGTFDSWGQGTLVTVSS
VL: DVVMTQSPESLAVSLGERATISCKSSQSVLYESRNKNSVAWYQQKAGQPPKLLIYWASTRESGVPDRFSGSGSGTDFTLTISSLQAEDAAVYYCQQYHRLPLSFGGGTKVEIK

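Phage display of a naive human antibody library on the peptide gave the parent. The variants were designed computationally from a first round of random CDR variants and then made and measured. Group labels follow the data file (Ctrl: baseline library sampled from a position-specific scoring matrix, with some repeated check sequences; GPLM: also part of the Gaussian process libraries; HC: hill climbing; a sequence that several methods proposed may carry one label only). AlphaSeq pools MATa yeast showing the antibodies with MATalpha yeast showing the peptide. After mating in shaken culture at 30 °C for 16 h, diploids were selected and their barcode pairs sequenced. Scores were corrected for input abundance and mapped to Kd with protein pairs of known affinity run in the same pool. The assay was run in six technical replicates.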

Variants are written as CDR1, CDR2 and CDR3 of the light chain (limits as in the source). Parent: KSSQSVLYESRNKNSVA, WASTRES, QQYHRLPLS.
Scale: log10 of Kd in nM, estimated from mating counts; low values are strong binders.
A mean of the replicates is given; it leaves out those without a signal.
Where no diploid with the target was found in that replicate, the entry reads "ND": below detection, most likely a poor binder, though not proof of it.
Values of this round are not directly comparable with the first-round values of the same sequences.
Some sequences occur more than once in the pool; their replicates are listed entry by entry, parted by semicolons.
Three control strains display no target. For all light chain designs, 4% of the pairings with them gave a signal, with a median of 2.64 and one signal in twenty below 1.59, so weak values seen in few replicates may be background. For each scFv, signals with the empty controls are counted beside the result, with their mean in brackets.
The authors' rule: three or more of the six replicates give a measured affinity, fewer mean a poor binder.

CDR-L1 | CDR-L2 | CDR-L3 | group | replicates, log10 nM | mean, log10 nM | control signals
KSSQSVLYESRNKNSVA | QASTRES | QQPHRLPLS | Ctrl | 1.06 1.96 1.48 0.75 1.08 0.64 | 1.16 | 0 of 18
KSSQSCMYESRNKNSVA | QASTRES | QQYHRLPLS | Ctrl | 0.32 0.06 0.84 1.21 0.55 0.39 | 0.56 | 1 of 18 (1.88)
KSSQSVLYESRNKNSVA | WASTRES | QQYHRLILS | Ctrl | ND ND ND ND ND ND | ND | 0 of 18
KSSQSVLNHSRNKNSVA | WASTRES | QQKHRLPLS | Ctrl | ND ND ND ND ND ND | ND | 1 of 18 (1.29)
KSSWSELYESRIKNSVA | KASTRES | QQYHRLPLS | Ctrl | 0.72 0.83 0.70 0.91 1.37 1.19 | 0.95 | 0 of 18
KSSQSVLYESRNKNSVA | DASTRES | QQYWRLPLS | Ctrl | 1.05 0.81 1.04 0.53 0.69 1.03 | 0.86 | 1 of 18 (2.81)
KSSQSVLYYSRNKNSVA | WASHRES | QQYHRLPLS | Ctrl | ND ND ND ND ND ND | ND | 0 of 18
KSSQSMLYESRNKNSVA | QASFRED | QQYHRLPLS | Ctrl | 0.27 0.60 0.51 0.28 0.34 1.31 | 0.55 | 1 of 18 (1.27)
KSSYSVAYESRNKNSVA | WASTRES | QQIHRLPLS | Ctrl | ND 0.87 ND ND 2.72 4.12 | 2.57 | 0 of 18
KSSQSVLYESRNKNSVA | NASTRES | QQYHRLPLS | Ctrl+GPLM_HC | 0.53 0.52 0.98 0.82 0.73 0.73; 0.27 0.26 0.34 -0.16 0.27 -0.07 | 0.44 | 0 of 36
KSSQSVPYESRNKNSVA | DASTRES | QQYHRLPAS | Ctrl | 0.01 -0.40 -0.05 -0.13 -0.31 0.09 | -0.13 | 1 of 18 (3.68)
KSSQSVLYMSRNKNGVA | GASTRES | QQYHRLPLS | Ctrl | 1.16 1.57 0.80 1.83 1.00 0.95 | 1.22 | 1 of 18 (2.02)
KSSQSVLYISLNSNSVA | WASVRES | DQWHSLPLS | Ctrl | ND ND ND ND ND ND | ND | 0 of 18
KSSQSVLTESRNKNSVA | QASTRES | QQYHRLPLS | Ctrl | 0.60 0.46 0.67 0.67 0.72 0.79 | 0.65 | 0 of 18
KYSQDKLYESRNKHSVA | WASTRES | QQYHRLPLS | Ctrl | 0.79 0.70 0.47 1.10 0.87 1.44 | 0.89 | 0 of 18
KSSQSVLFESRNKNSVA | AASTRES | QQYHRLPLS | Ctrl | 0.94 ND ND 2.03 1.70 1.66 | 1.58 | 2 of 18 (1.47)
KSSQSVLYESRNNNSVA | WASTRES | CQYHGLPLS | Ctrl | 2.28 3.01 2.62 ND 2.98 2.60 | 2.70 | 1 of 18 (2.11)
KSSQSVLYESRNKNSVA | FASTRES | QQYHRLPLW | Ctrl | ND ND ND ND ND ND | ND | 0 of 18
KSSPSVLWESLNKNSVA | RASTRES | QTYARLPLK | Ctrl | ND 2.46 1.61 ND ND 2.48 | 2.18 | 2 of 18 (2.29)
KSSQSFLYESQNKNSVA | MASTRES | QQYARLPLS | Ctrl | 0.79 0.10 0.25 0.25 0.53 0.47 | 0.40 | 1 of 18 (4.55)
KASKSVLYEGRNKNSVA | WASTRES | QQYHRLPLS | Ctrl | 1.28 1.81 1.94 1.46 1.53 1.42 | 1.57 | 5 of 18 (2.73)
KSSQSVLWESRNKNSVA | NASYRES | QQYHRLPLS | Ctrl | 0.93 2.06 1.02 2.41 1.40 1.37 | 1.53 | 1 of 18 (1.99)
KSSQHVLYESRNKNSVA | YASTRES | QQYHRLPLS | Ctrl | 2.07 1.78 1.95 2.37 2.24 1.91 | 2.05 | 0 of 18
KYSQSVLYESRNKNSVA | DASTRRS | QQYHRLPLS | Ctrl | 0.45 0.25 0.13 0.24 0.18 0.39 | 0.27 | 0 of 18
KLSQSVLYESRNKNNVA | WASTRES | QQYHRLPLS | Ctrl | 0.03 0.06 0.22 -0.10 -0.14 0.21 | 0.04 | 1 of 18 (1.85)
KSSPSVIYESRNKNSVA | WASTRES | QQTHRLPLS | Ctrl | ND ND ND ND ND ND | ND | 0 of 18
KSSESVYYESRNKNSVA | WASTRES | QQYHRLPLS | Ctrl | ND ND ND ND ND 2.25 | 2.25 | 0 of 18
KSSQSALYESRNYNSVA | WASTRES | QQYHRLPLS | Ctrl | 1.96 ND 1.87 ND 2.08 2.23 | 2.03 | 1 of 18 (1.70)
KSEQSVLYESRNKNSVA | RARTRES | QQYHRLPLS | Ctrl | 2.08 ND ND ND ND 2.40 | 2.24 | 0 of 18
KSSQWVLYESRNKNSVA | WASTRES | QQYHRLPLS | Ctrl | ND 2.12 4.67 ND ND 3.50 | 3.43 | 2 of 18 (2.16)
KSSQSRLYESQNKNSVA | WASTRES | QQYHRLPLS | Ctrl | 0.76 1.39 2.11 1.91 ND ND | 1.54 | 1 of 18 (2.00)
KFSQSVLYESRNTNSVA | YASTRES | QQYHYLPLS | Ctrl | 1.19 0.61 0.32 1.13 0.44 1.57 | 0.88 | 0 of 18
KSSQSVLYESRMHNSVA | AASTRES | QTYHRLPLS | Ctrl | 1.52 0.62 0.55 0.61 1.40 1.53 | 1.04 | 1 of 18 (1.67)

From the list, the first 3 with no signal in any replicate:

CDR-L1	CDR-L2	CDR-L3	group	replicates, log10 nM	mean, log10 nM	control signals
KSSQSVLYESRNKNSVA	WASTRES	QQYHRLILS	Ctrl	ND ND ND ND ND ND	ND	0 of 18
KSSQSVLNHSRNKNSVA	WASTRES	QQKHRLPLS	Ctrl	ND ND ND ND ND ND	ND	1 of 18 (1.29)
KSSQSVLYYSRNKNSVA	WASHRES	QQYHRLPLS	Ctrl	ND ND ND ND ND ND	ND	0 of 18